System: mongrel dogs
Experiment: circulatory-pharmacological effectiveness on the narcotised dog, intravenous administration
Type: in vivo
Settings: 1 mg/kg i.v.

Nc1ncnc2c1ncn2[C@H]1CO[C@H]2[C@@H]1OC[C@@H]2O[N+](=O)[O-] [1c/2c, 5-(9-Adenyl)-5-desoxy-1.4;3.6-dianhydro-L-iditol 2-nitrate] was tested, and the “effectiveness, especially lowering of the end diastolic pressure in the left ventricle and longterm lowering of the pressure in the A. pulmonalis, comparison” value was “better than that of the comparison compound ISDN”.

— patent publication US4479951A, “1.4;3.6-Dianhydrohexitol nitrates substituted by purine bases, processes for their preparation and pharmaceutical compositions” (Dr. Willmar Schwabe GmbH & Co., priority 1980, dated 1984)
